Results from patent publication US8759366B2, “Aminopyrimidines as SYK inhibitors” (Merck Sharp & Dohme Corp., priority 2009, dated 2014).

What was measured:
rhSYK = rhSYK (Homo sapiens (Human), UniProt P43405); conditions: tested form: TFA
[1] = target: recombinant human SYK (GST-hSYK fusion protein) (Homo sapiens (Human), UniProt P43405)

Structure (SMILES) | IC50 (rhSYK) [nM] | IC50 [1] [nM]
CC(=O)NS(=O)(=O)c1ccc(C(C)(O)c2ncc(-c3cc(C)cc(Nc4nccc(C(F)(F)F)n4)c3)s2)cc1 (stereo not drawn) | < 100 | –
CNC(=O)N1CCCC(O)(c2ncc(-c3cc(C)cc(Nc4nccc(C(F)(F)F)n4)c3)s2)CC1 (single isomer, unassigned) | – | < 100
COc1nc(Nc2cc(C)cc(-c3cnc(C4(O)CCCN(C(=O)OC(C)(C)C)CC4)s3)c2)ncc1Cl (single isomer, unassigned) | – | 1000 to 10000
